Ab-14 light chain CDR variants: yeast mating affinities

The target is the same throughout: PDVDLGDISGINAS, from the HR2 region of SARS-CoV-2 spike.

Parent scFv Ab-14: VH joined to VL by the linker GGGGSGGGGSGGGGS. Changes lie in the light chain CDRs alone.
VH: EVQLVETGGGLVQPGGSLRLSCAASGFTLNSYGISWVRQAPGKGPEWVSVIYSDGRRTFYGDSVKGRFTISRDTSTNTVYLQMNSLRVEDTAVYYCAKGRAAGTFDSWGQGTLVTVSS
VL: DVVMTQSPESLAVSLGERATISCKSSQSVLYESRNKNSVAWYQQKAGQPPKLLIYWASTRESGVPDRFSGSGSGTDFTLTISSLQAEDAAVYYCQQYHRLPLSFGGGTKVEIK

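The parent was found by panning a naive human phage display library on the peptide. These sequences belong to a second round, designed from the earlier measurements on random variants of the parent. Their group label is 14L_Ctrl (Ctrl: baseline library sampled from a position-specific scoring matrix, with some repeated check sequences). Affinity was read by AlphaSeq, a pooled yeast mating assay with surface-displayed partners. After mating in shaken culture at 30 °C for 16 h, diploids were selected and their barcode pairs sequenced. Scores were corrected for input abundance and mapped to Kd with protein pairs of known affinity run in the same pool. Mating was done six times.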

Substitutions are numbered in sequence along the VL above, starting at 1 (not Kabat). Scale: log10 of Kd in nM, estimated from mating counts; low values are strong binders. A mean of the replicates is given; it leaves out those without a signal. "nd" means that the variant was in the library but no mating with the target was seen in that replicate; the authors take this as a sign of poor binding, and no number exists. Values of this round are not directly comparable with the first-round values of the same sequences.

changes | replicates, log10 nM | log10 Kd (nM), mean | empty controls
Y31F W56Q S103Y | 0.85 / 1.21 / 0.69 / 1.39 / 1.19 / 1.00 | 1.06 | 1 of 18 (2.43)
V29M Y31G K36H W56S Y97V | nd / 1.61 / 1.79 / nd / 0.78 / nd | 1.39 | 0 of 18
S25M W56S Q95D | 1.09 / nd / 1.60 / 2.20 / 1.19 / nd | 1.52 | 0 of 18
S33T W56E | 0.51 / 0.46 / 0.14 / -0.01 / 0.54 / 0.55 | 0.37 | 0 of 18
K24H Q27L L30F | 1.49 / nd / nd / nd / nd / nd | 1.49 | 0 of 18
Y97C L100C | nd / nd / nd / nd / nd / 1.24 | 1.24 | 0 of 18
S26W | nd / nd / nd / nd / 1.59 / nd | 1.59 | 1 of 18 (1.48)
Y31V R34S H98Q | 1.58 / 1.36 / 2.08 / 1.82 / 1.85 / 1.84 | 1.76 | 2 of 18 (3.28)
Y31F R34N | 0.96 / 1.24 / 1.05 / 1.19 / 1.52 / 1.20 | 1.19 | 3 of 18 (2.15)
S25L Q27H R34A K36P S38F A40M Q96D | 0.97 / 0.50 / 0.33 / 0.54 / 0.85 / 0.84 | 0.67 | 0 of 18
W56L R99P | nd / nd / nd / nd / nd / nd | nd | 0 of 18
S38D W56T S62R H98E | nd / 2.93 / nd / nd / 4.66 / nd | 3.79 | 0 of 18
S25F S33E R99G | nd / 2.49 / 1.95 / 1.21 / 2.19 / 2.71 | 2.11 | 1 of 18 (1.52)
T59M L102E | 2.59 / 2.96 / nd / 1.97 / 2.15 / 3.40 | 2.61 | 2 of 18 (1.85)
L30N R34Q V39I W56D | -0.22 / -0.32 / -0.33 / -0.34 / -0.36 / -0.03 | -0.27 | 1 of 18 (2.87)
S25I W56D S62V | -0.07 / -0.28 / -0.34 / -0.35 / -0.35 / -0.12 | -0.25 | 2 of 18 (3.97)
E32A R34K | nd / nd / nd / nd / nd / nd | nd | 0 of 18
Q27S W56E T59I | 0.93 / 0.68 / 1.02 / 0.83 / 0.69 / 1.50 | 0.94 | 1 of 18 (3.34)
A57G S62L | 0.56 / 0.86 / 1.23 / 1.75 / 0.49 / 0.57 | 0.91 | 0 of 18
K24W Y31V R34S W56F R60L | nd / 1.44 / 1.71 / 2.25 / nd / nd | 1.80 | 0 of 18
E32T W56N S58D | 0.73 / 0.50 / 0.54 / 0.29 / 0.98 / 0.63 | 0.61 | 2 of 18 (2.46)
S33F N35M H98R | nd / nd / nd / nd / nd / nd | nd | 0 of 18
R34N S38A Y97G | nd / nd / nd / nd / nd / nd | nd | 1 of 18 (1.74)
L102T | nd / nd / nd / nd / nd / nd | nd | 0 of 18
S25C R34T K36A R99V | nd / nd / 1.38 / nd / nd / nd | 1.38 | 0 of 18
S38I W56S | nd / nd / 1.46 / nd / nd / nd | 1.46 | 2 of 18 (2.01)
S25F R34W S38H | 0.62 / 0.23 / 0.71 / 0.22 / 0.46 / 0.36 | 0.43 | 0 of 18
S28M R34F | nd / nd / nd / nd / nd / nd | nd | 0 of 18
R34H W56S | 1.23 / 0.45 / 0.50 / 0.61 / 0.51 / 0.74 | 0.67 | 1 of 18 (1.61)
K36Q S38N W56Q | 0.38 / 0.50 / 0.30 / 0.15 / 0.37 / 0.68 | 0.40 | 2 of 18 (3.56)
S26D S28E S58T | nd / 2.27 / 0.82 / 1.91 / 2.72 / nd | 1.93 | 0 of 18
Q27G N35S W56T T59L S62D | 1.07 / 1.85 / 2.10 / 2.89 / 1.23 / 2.54 | 1.95 | 0 of 18
V29Q | 2.59 / 2.37 / 2.77 / nd / 2.27 / 3.18 | 2.63 | 0 of 18
L30R W56D | 0.10 / 0.37 / 0.03 / 0.40 / 0.39 / 0.59 | 0.31 | 0 of 18
V29W W56Y R60G Q96L | nd / nd / nd / nd / nd / nd | nd | 0 of 18
K36C T59E | 1.89 / 2.56 / 2.70 / 2.23 / 2.72 / 2.34 | 2.41 | 0 of 18
V29W S62E | 0.39 / 0.45 / -0.16 / 0.25 / 0.10 / 0.32 | 0.22 | 0 of 18

The authors' rule: three or more of the six replicates give a measured affinity, fewer mean a poor binder. Empty control strains, which show no peptide, gave a signal in 4% of pairings with all light chain designs; the median was 2.64 and 95% of these signals were weaker than 1.59. No background was subtracted. For each scFv, signals with the empty controls are counted beside the result, with their mean in brackets. The parent sequence was in this pool as ten entries: three were never detected, three once, and four in most replicates, with averages from 0.34 to 2.37.

Values reported by Li et al. 2023, doi:10.1038/s41467-023-39022-2 (FLAb copy).